Source: ChEMBL document CHEMBL4330144, “A mitochondria-targeted organic arsenical accelerates mitochondrial metabolic disorder and function injury” (Bioorg Med Chem, 2019)

Columns and labels:
NB-4 [1] = assay: Induction of ROS generation in human NB4 cells at 1.2 uM after 1 to 6 hrs by DCFH-DA staining based flow cytometry
Rattus norvegicus [2] = species: Rattus norvegicus; assay: Induction of mitochondrial membrane potential loss in isolated Wistar rat mitochondria assessed as maximum power output at 100 uM using pyruvate as substrate up to 3 hrs by microcalorimetry; format: functional
Rattus norvegicus [3] = species: Rattus norvegicus; assay: Induction of mitochondrial swelling in isolated Wistar rat mitochondria at 25 to 150 uM
NB-4 [4] = assay: Induction of apoptosis in human NB4 cells assessed as early apoptotic cells at 1.2 uM after 24 hrs in presence of Nec-1 by Annexin V-FITC/propidium iodide staining based flow cytometry (reference value: 5%)
NB-4 [5] = assay: Induction of cytochrome-c release in human NB4 cells after 24 hrs by ELISA; format: functional, cell-based
NB-4 [6] = assay: Induction of apoptosis in human NB4 cells assessed as early apoptotic cells at 1.2 uM after 24 hrs in presence of Z-VAD-fmk by Annexin V-FITC/propidium iodide staining based flow cytometry (reference value: 5%)
NB-4 [7] = assay: Induction of apoptosis in human NB4 cells assessed as necrotic cells at 1.2 uM after 24 hrs in presence of Z-VAD-fmk by Annexin V-FITC/propidium iodide staining based flow cytometry (reference value: 0.1%)
NB-4 [8] = assay: Induction of apoptosis in human NB4 cells assessed as live cells at 1.2 uM after 24 hrs in presence of Z-VAD-fmk by Annexin V-FITC/propidium iodide staining based flow cytometry (reference value: 92%)
NB-4 [9] = assay: Induction of mitochondrial membrane potential loss in human NB4 cells assessed as decrease in intracellular ATP level at 1.2 to 2.4 uM after 24 hrs
NB-4 [10] = assay: Reduction in cell viability in human NB4 cells up to 2.4 uM up to 24 hrs by MTT assay; format: functional, cell-based
Rattus norvegicus [11] = species: Rattus norvegicus; assay: Induction of mitochondrial membrane potential loss in isolated Wistar rat mitochondria assessed as maximum power output at 50 uM using pyruvate as substrate up to 3 hrs by microcalorimetry; format: functional
NB-4 [12] = assay: Induction of apoptosis in human NB4 cells assessed as DNA fragmentation at 1.2 to 2.4 uM after 24 hrs by Hoechst 33342/propidium iodide staining based confocal microscopic method
NB-4 [13] = assay: Induction of apoptosis in human NB4 cells assessed as late apoptotic cells at 1.2 uM after 24 hrs in presence of Z-VAD-fmk by Annexin V-FITC/propidium iodide staining based flow cytometry (reference value: 2.9%)

Structure (SMILES): Nc1ccc([As]2SCCCS2)cc1
- Activity (NB-4 [1]): inactive
- Activity (Rattus norvegicus [2]): 96.9 W
- Activity (Rattus norvegicus [3]): inactive
- Activity (NB-4 [4]): 12.1%
- Activity (NB-4 [5]): Dose-dependent effect
- Activity (NB-4 [6]): 9.7%
- Activity (NB-4 [7]): 0.1%
- Activity (NB-4 [8]): 84.2%
- Activity (NB-4 [9]): Active
- Activity (NB-4 [10]): Active
- Activity (Rattus norvegicus [11]): 88.2 W
- Activity (NB-4 [12]): Active
- Activity (NB-4 [13]): 6%

Calls of active or inactive are those of the source. No cut-off for these calls is given here.
